This is an account of results in paper PMC10500568, “Inhibition of MurA Enzyme from Escherichia coli by Flavonoids and Their Synthetic Analogues” (ACS Omega, 2023).

Sequences of proteins named here, by UniProt entry; tags and fusion partners are left off. A change or cut given only in a name is not applied to a line headed by its entry.
UniProt P0A749: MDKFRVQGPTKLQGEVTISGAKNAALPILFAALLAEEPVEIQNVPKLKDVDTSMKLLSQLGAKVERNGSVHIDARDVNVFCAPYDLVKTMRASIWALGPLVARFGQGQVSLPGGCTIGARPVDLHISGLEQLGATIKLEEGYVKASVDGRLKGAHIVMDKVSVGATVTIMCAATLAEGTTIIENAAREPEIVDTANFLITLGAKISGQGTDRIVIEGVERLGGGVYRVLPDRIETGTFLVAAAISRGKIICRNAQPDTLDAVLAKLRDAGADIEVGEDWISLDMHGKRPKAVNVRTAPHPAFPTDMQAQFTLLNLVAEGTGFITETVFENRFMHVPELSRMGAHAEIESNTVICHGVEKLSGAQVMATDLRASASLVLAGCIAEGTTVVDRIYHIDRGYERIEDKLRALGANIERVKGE

In the assay the target is MurA enzyme from E. coli (Escherichia coli, UniProt P0A749). Briefly: MurA inhibition assay (malachite green, orthophosphate release). It counts as biochemical. The settings on record: 30 min preincubation. Here is the method:
To determine the inhibition of MurA, the colorimetric assay with malachite green was used to measure the release of orthophosphate generated during the reaction.[30] […] Time-dependent inhibition assays were also performed by preincubating MurA with the 200 μM UNAG substrate and target compounds for 30 min at 37 °C before starting the reaction with the addition of the second substrate 100 μM PEP, resulting in a final mixture volume of 50 μL. The reaction was stopped after a 15 min incubation at 37 °C by adding the Biomol reagent (100 μL, Enzo Life Sciences, New York), and the absorbance was measured after 5 min at 650 nm using a microplate reader (BioTek, Synergy H4). The final concentration of DMSO in the reaction mixture was 5% (v/v), and 1 μM fosfomycin was used as a reference in the MurA assay. The percentage of residual activity was calculated in comparison to the negative controls, which contained only 5% DMSO. IC50 values were determined by measuring residual activities at 7 different concentrations of the compounds and calculated using GraphPad Prism (GraphPad Software, San Diego, California).
The initial screening of flavonoids was performed under three different assay conditions: (1) without preincubation, (2) with a 30 min preincubation, and (3) with the addition of dithiothreitol (DTT) along with a 30 min preincubation. […]

pIC50: −log10 of the molar value.

As a reminder, the pIC50 is −log10 of the IC50, conventionally taken in molar units. myricitrin [Compound 5]: the pIC50 was 5.62.
